Experimental data: US20170128059A1, “METHODS AND APPARATUS FOR PREVENTION OF SURGICAL SITE INFECTIONS” (priority 2015, published 2017)

How the values were obtained:
[1] = intravenous injection, 240 mg; cited from earlier work
[2] = serum and wound tissue gentamicin concentration by ELISA after local delivery through the surgical device; conditions: E-F group
[3] = bolus intravenous injection of 100 mg, healthy patients; cited from earlier work

## gentamicin
[1]
  duration of bloodstream concentration above the toxic threshold: about 40 minutes
[2]; Time 1
  mean serum gentamicin concentration: 0.24 ± 0.11 mg/L
[2]; Time 2
  mean serum gentamicin concentration: 0.10 ± 0.05 mg/L
[2]; Times 1 and 2
  wound margin tissue concentration relative to corresponding serum levels: 4-6 ×
[3]
  maximum blood serum concentration: up to 6 mg/L
